These are literature values, as cited in patent US20240315989A1 (priority 2021, published 2024).

Chains of the proteins cited; added tags and fusions are not shown.
UniProt Q99720, whole entry: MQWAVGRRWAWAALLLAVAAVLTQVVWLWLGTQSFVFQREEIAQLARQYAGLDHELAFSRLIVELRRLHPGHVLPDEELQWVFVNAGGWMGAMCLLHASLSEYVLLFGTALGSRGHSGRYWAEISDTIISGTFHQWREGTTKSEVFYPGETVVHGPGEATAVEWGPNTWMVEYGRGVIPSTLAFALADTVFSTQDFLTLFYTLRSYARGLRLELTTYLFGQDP

The data set has as its target σ1 site (Homo sapiens, UniProt Q99720). The settings on record: read-out: Affinity for σ1 Site (Ki or KD values); cited from earlier work.

Turning to `Clc1cc(/C=C\CN2CCCCCC2)ccc1C1CCCCC1`, the Ki is below 50 nM.
